## Antibody variant affinities, Ab-14 light chain, assay 1

Target: peptide PDVDLGDISGINAS, taken from heptad repeat 2 (HR2) of SARS-CoV-2 spike.

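Phage display of a naive human antibody library on the peptide gave the parent. The library (AAYL50) carries one to three amino acid substitutions per variant, with no insertions or deletions. AlphaSeq pools MATa yeast showing the antibodies with MATalpha yeast showing the peptide. Binding brings cells together so that they mate, and sequencing counts the barcode pairs among the diploids. Read counts were normalised to the haploid input and turned into Kd by a linear fit to BCL2-family pairs of known affinity, for each replicate. Each pool was mated in three replicate cultures.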

Parent scFv Ab-14: VH joined to VL by the linker GGGGSGGGGSGGGGS. Changes lie in the light chain CDRs alone.
VH: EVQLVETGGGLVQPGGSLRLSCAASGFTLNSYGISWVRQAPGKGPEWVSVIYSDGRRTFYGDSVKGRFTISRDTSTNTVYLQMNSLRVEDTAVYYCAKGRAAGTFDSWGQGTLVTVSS
VL: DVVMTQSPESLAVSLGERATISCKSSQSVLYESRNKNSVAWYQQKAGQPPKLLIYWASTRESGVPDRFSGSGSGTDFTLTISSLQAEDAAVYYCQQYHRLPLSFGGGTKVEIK

Sequences are complete VL domains. Values are apparent Kd, the geometric mean of the replicates that gave a signal; lower means stronger binding. An entry "not detected" has no value in the source: the pair was not observed among the diploids in any replicate. This suggests poor binding but is not conclusive. Background: pairings of library AAYL50 with three empty control strains gave a value in 18% of cases (median 15 µM, 5th percentile 970 nM). Values in that range, when seen in few replicates, are hard to tell from nonspecific mating. The control count says in how many pairings with the empty strains this scFv gave a signal.

VL | Kd (apparent) | replicates with signal | signal with controls
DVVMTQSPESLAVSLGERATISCKSSQSVLYGSRNKNSVAWYQQKAGQPPKLLIYWASTRESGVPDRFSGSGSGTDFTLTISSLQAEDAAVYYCQQRHRLPLSFGGGTKVEIK | 79 nM | 3 of 3 | 6 of 9
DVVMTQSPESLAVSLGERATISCKSSQSVLYESRNKNSVAWYQQKAGQPPKLLIYWHSTRESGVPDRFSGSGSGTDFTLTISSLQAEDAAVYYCQQYHYLPLMFGGGTKVEIK | 39 µM | 1 of 3 | 1 of 9
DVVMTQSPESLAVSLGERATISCKSSQSVCYESRNKNSVAWYQQKAGQPPKLLIYWASWDESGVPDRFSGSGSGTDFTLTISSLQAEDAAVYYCQQYHRLPLSFGGGTKVEIK | not detected | 0 of 3 | 0 of 9
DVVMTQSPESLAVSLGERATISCKGSQSVLYPSRNKFSVAWYQQKAGQPPKLLIYWASTRESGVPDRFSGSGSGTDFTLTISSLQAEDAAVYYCQQYHRLPLSFGGGTKVEIK | 180 nM | 3 of 3 | 1 of 9
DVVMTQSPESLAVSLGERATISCKSSQSVLYNNRNKNSVAWYQQKAGQPPKLLIYWASTRESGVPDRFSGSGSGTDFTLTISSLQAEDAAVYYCQQYHRLPLSFGGGTKVEIK | 9.4 nM | 3 of 3 | 0 of 9
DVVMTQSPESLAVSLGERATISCFSSQSVLYESRNKNSVAWYQQKAGQPPKLLIYWASTREEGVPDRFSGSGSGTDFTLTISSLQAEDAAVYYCQRYHRLPLSFGGGTKVEIK | 38 µM | 1 of 3 | 5 of 9
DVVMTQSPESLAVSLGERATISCKSSQSVLYKSRNKNSKAWYQQKAGQPPKLLIYWASTRESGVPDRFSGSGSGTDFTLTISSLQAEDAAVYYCQQYHRLPFSFGGGTKVEIK | not detected | 0 of 3 | 1 of 9
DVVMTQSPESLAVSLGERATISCKSSQSVLYESRNKNSVWWYQQKAGQPPKLLIYMASTRESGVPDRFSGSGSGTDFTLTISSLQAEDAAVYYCQQYHRLPLKFGGGTKVEIK | not detected | 0 of 3 | 0 of 9
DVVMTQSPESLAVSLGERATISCKSSQSVLYESRNKNSVAWYQQKAGQPPKLLIYWAWFRESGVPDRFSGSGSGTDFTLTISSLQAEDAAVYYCQQYHRLPGSFGGGTKVEIK | 30 nM | 2 of 3 | 0 of 9
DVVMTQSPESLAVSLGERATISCKQSQSVLYESRNKNSVAWYQQKAGQPPKLLIYWTSTRESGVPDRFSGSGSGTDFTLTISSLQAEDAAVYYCQFYHRLPLSFGGGTKVEIK | 140 nM | 1 of 3 | 0 of 9
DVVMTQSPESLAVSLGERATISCKSLQSVLYESRNKCSVAWYQQKAGQPPKLLIYWASTRESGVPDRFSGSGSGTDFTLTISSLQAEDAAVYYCQQYHRGPLSFGGGTKVEIK | not detected | 0 of 3 | 0 of 9
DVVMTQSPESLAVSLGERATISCKSSQSVLYHSMNKNSVAWYQQKAGQPPKLLIYWASCRESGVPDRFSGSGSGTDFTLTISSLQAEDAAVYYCQQYHRLPLSFGGGTKVEIK | 34 nM | 3 of 3 | 1 of 9
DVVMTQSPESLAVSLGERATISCKSSQSVLYESRNKNGVAWYQQKAGQPPKLLIYWASTRESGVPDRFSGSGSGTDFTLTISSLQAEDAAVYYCQQYMRLPCSFGGGTKVEIK | 510 nM | 2 of 3 | 0 of 9
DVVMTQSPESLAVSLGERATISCKSSQSVCYESKNKNSVAWYQQKAGQPPKLLIYWASTRESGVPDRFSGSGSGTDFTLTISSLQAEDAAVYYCQQYHRLPLSFGGGTKVEIK | 87 nM | 3 of 3 | 2 of 9

A selection of 2 entries from above:

VL | Kd (apparent) | replicates with signal | signal with controls
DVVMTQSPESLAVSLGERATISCKSSQSVLYESRNKNSVWWYQQKAGQPPKLLIYMASTRESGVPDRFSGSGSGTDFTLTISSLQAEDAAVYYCQQYHRLPLKFGGGTKVEIK | not detected | 0 of 3 | 0 of 9
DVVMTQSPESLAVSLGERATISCKSSQSVCYESKNKNSVAWYQQKAGQPPKLLIYWASTRESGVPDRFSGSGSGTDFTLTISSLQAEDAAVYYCQQYHRLPLSFGGGTKVEIK | 87 nM | 3 of 3 | 2 of 9

Data: MIT Lincoln Laboratory AlphaSeq set, Engelhart et al. 2022, doi:10.1038/s41597-022-01779-4, as distributed in FLAb.